PMC12457114, “Comparison of the pharmacokinetic profiles of three triterpenoids after oral administration of a cucurbitacin tablet and nanosuspension by UHPLC-MS/MS” (Frontiers in Pharmacology, 2025)

What was measured:
[1] = Pharmacokinetic study in rats after oral administration of CUT and MP-NPs, plasma by UHPLC-MS/MS; type: in vivo, Sprague Dawley (SD) rats; settings: n = 6, mean ± SD
Method: An Agilent 6430 triple quadrupole mass spectrometer with an ESI source interface (Agilent Technologies, Santa Clara, CA, United States) was used in conjunction with an Agilent 1290 UHPLC system (Agilent Technologies). A Waters ACQUITY HSS T3 Column (1.8 μm, 2.1 × 100 mm) (Waters, Manchester, UK) was also used for the separations. Gradient elution was performed using water (A) and methanol (B) as mobile phases. The gradient elution procedure was used for 0.0–1.0 min, 80%–80% B; 1.0–1.5 min, 80%–90% B; 1.5–3.0 min, 90%–90% B; 3.0–3.2 min, 90%–80% B; and 3.2–4 min, 80%–80% B. The analytical temperature was 35 °C, and the flow rate was 0.3 mL/min. An injection of 5 μL volume was administered, after which the needle was washed. Positive ion-mode analysis was performed for the samples. The capillary voltage was set to 4500 V, source temperature to 100 °C, and the desolvation temperature to 350 °C ([Wang et al., 2014]). High-purity nitrogen was used as the nebulizing gas, and nitrogen was used as the drying gas at a flow rate of 11 L/min. The Agilent Mass Hunter workstation was used to gather the experimental data ([Wang Z et al., 2023]). Using specific precursor and product ion transitions at m/z 581.2→521.9 for CuB, m/z 539.3→480.2 for CuD, m/z 578.9→520.9 for CuE, and m/z 418.9→387.1 for IS at various fragmentor voltage (FV) and collision energy (CE) conditions listed in Table 1, quantification was accomplished using multiple reaction monitoring (MRM) mode.
A total of 12 male Sprague Dawley (SD) rats (weight: 220 ± 20 g) were provided by the Animal Experiment Center of Heilongjiang University of Traditional Chinese Medicine (Production license number: SYXK (Hei) 2021-010). The Laboratory Animal Ethics Committee of Heilongjiang University of Traditional Chinese Medicine approved the study (Approval No.: 2024053114).
Animals were randomly assigned to the following two experimental groups (n = 6 per group): CUT and MP-NPs. Treatments were administered once daily for seven consecutive days, with the plasma sampling performed at predetermined time points after administration. Dosage was calculated based on human-equivalent doses converted to rat pharmacokinetic parameters using interspecies scaling factors. The human-rat dose conversion procedure was used to determine the dose of CUT per rat to be 0.03 g. The recommended daily dosage for humans is 6 tablets. The dose of MP-NPs per rat was determined to be 0.06 g per rat using the human-rat dose conversion formula, whereas the dose of P. Melo for human usage was 3 g, with reference to the Pharmacopoeia of the People’s Republic of China 2025.
At 0.083, 0.25, 0.50, 1, 1.5, 2, 2.5, 3, 4, 6, 8, 12, and 24 h following oral administration of CUT and MP-NPs, 0.25 mL of plasma samples were sampled by rapidly collecting and centrifuging at 4 °C, followed by freezing at −20 °C for further analysis ([Yu et al., 2023]).
Blank plasma sample (100 μL) was vortexed for 60 s after adding 100 μL of IS. To guarantee complete extraction, 3 mL of dichloromethane was then added to each sample, followed by vortexing for 120 s. Subsequently, the samples were centrifuged for 10 min at 4 °C and 3,500 rpm. At 40 °C, the […] organic phase was carefully moved into a sterile tube, dried off with a mild stream of nitrogen gas, and then reconstituted in 100 μL of the original mobile phase. Following a 120 s vortex, the extracts were filtered through a 0.22 μm Millipore filter before subjecting them to quantitative analyses by injecting 5 μL of them into the UHPLC-MS/MS apparatus.
The established UHPLC-MS/MS method was applied to simultaneously measure the plasma concentrations of the three analytes in rats following dose administration. Pharmacokinetic parameters have attracted attention in exploring drug absorption and distribution. These parameters include T 1/2, C max, T max, and AUC (Table 6). The pharmacokinetics of SD rats following oral administration of CUT and MP-NPs were investigated through UHPLC-MS/MS. […]

[2] = Stability of the analytes in rat plasma under different storage conditions; type: in vitro ADME; settings: for Stability (RE%) Post-preparative / Stability (RE%) Short-term / Stability (RE%) Long-term / Stability (RE%) Freeze-thaw: rat plasma, n = 6; for Stability (RE%) Short-term: ambient temperature (25 °C) for 4 h; for Stability (RE%) Freeze-thaw: three freeze-thaw cycles (−20 °C/room temperature)
Source text: Table 5 outlines the stability of LQC, MQC, and HQC in the rat plasma under different storage conditions. […] The RSD for these conditions was ≤11.01%, confirming minimal variability.

[3] = CUT group, oral cucurbitacin tablet 0.03 g per rat
[4] = MP-NPs group, oral MP-NPs(PVP-K30) 0.06 g per rat
[5] = HQC (spiked 300.2 CuB, 600.2 CuD, 300.8 CuE ng/mL)
[6] = LQC (spiked 5.272 CuB, 25.30 CuD, 5.257 CuE ng/mL)
[7] = MQC (spiked 150.1 CuB, 300.1 CuD, 150.4 CuE ng/mL)

Question: Which “AUC 0→t” value [1, 3] does the source give for cucurbitacin B [CuB] here?
Answer: 617.9 ± 88.56 ng·h/mL

Question: And the “AUC0→∞” value [1, 3]?
Answer: 708.1 ± 77.29 ng·h/mL

Question: And the C max [1, 3]?
Answer: 142.1 ± 22.24 ng/mL

Question: And the “T 1/2” value [1, 3]?
Answer: 4.871 ± 1.121 h

Question: And the T max [1, 3]?
Answer: 2.421 ± 0.3810 h

Question: What about the “AUC 0→t” value [1, 4] of the same substance?
Answer: 875.5 ± 217.1 ng·h/mL

Question: What about the “AUC0→∞” value [1, 4] of the same substance?
Answer: 975.7 ± 255.4 ng·h/mL

Question: And the C max [1, 4]?
Answer: 228.6 ± 11.97 ng/mL

Question: And the “T 1/2” value [1, 4]?
Answer: 4.569 ± 1.033 h

Question: What about the T max [1, 4] of the same substance?
Answer: 1.922 ± 0.3831 h

Question: And the “Stability (RE%) Post-preparative” value ([2]; HQC (spiked 300.2 CuB, 600.2 CuD, 300.8 CuE ng/mL), 12 h at 4 °C post-sample preparation)?
Answer: −8.081%

Question: And the “Stability (RE%) Short-term” value [2, 5]?
Answer: −6.496%

Question: What about the “Stability (RE%) Long-term” value ([2]; HQC (spiked 300.2 CuB, 600.2 CuD, 300.8 CuE ng/mL), storage at −20 °C) of the same substance?
Answer: −8.414%

Question: And the “Stability (RE%) Freeze-thaw” value [2, 5]?
Answer: −6.654%

Question: What about the “Stability (RE%) Post-preparative” value ([2]; LQC (spiked 5.272 CuB, 25.30 CuD, 5.257 CuE ng/mL), 12 h at 4 °C post-sample preparation) of the same substance?
Answer: −6.702%

Question: And the “Stability (RE%) Short-term” value [2, 6]?
Answer: −6.465%

Question: What about the “Stability (RE%) Long-term” value ([2]; LQC (spiked 5.272 CuB, 25.30 CuD, 5.257 CuE ng/mL), storage at −20 °C) of the same substance?
Answer: 4.471%

Question: And the “Stability (RE%) Freeze-thaw” value [2, 6]?
Answer: −3.215%

Question: What about the “Stability (RE%) Post-preparative” value ([2]; MQC (spiked 150.1 CuB, 300.1 CuD, 150.4 CuE ng/mL), 12 h at 4 °C post-sample preparation) of the same substance?
Answer: −10.45%

Question: What about the “Stability (RE%) Short-term” value [2, 7] of the same substance?
Answer: −3.932%

Question: And the “Stability (RE%) Long-term” value ([2]; MQC (spiked 150.1 CuB, 300.1 CuD, 150.4 CuE ng/mL), storage at −20 °C)?
Answer: −11.01%

Question: And the “Stability (RE%) Freeze-thaw” value [2, 7]?
Answer: −7.542%

Question: What about the “Stability in rat plasma (in words)” value ([2]; storage at −20 °C, 25 °C for 4 h, three freeze-thaw cycles, 12 h at 4 °C post-sample preparation) of the same substance?
Answer: remained stable
